## Apparent affinities of Ab-95 variants for a coronavirus HR2 peptide

Source: Engelhart et al. 2022 (doi:10.1038/s41597-022-01779-4), MIT Lincoln Laboratory and A-Alpha Bio; data file from the FLAb repository.

The target is the same throughout: PDVDLGDISGINAS, from the HR2 region of SARS-CoV-2 spike.

Ab-95 is the parent antibody, in scFv form: VH, then three GGGGS repeats, then VL. The heavy chain is unchanged in all variants.
VH: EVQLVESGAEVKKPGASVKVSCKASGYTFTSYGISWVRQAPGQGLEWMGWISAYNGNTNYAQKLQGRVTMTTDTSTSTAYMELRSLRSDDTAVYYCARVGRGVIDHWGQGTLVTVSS
VL: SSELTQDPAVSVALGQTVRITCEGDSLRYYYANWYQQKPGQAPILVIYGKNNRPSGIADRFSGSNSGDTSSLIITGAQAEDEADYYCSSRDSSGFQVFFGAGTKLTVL

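The parent was found by panning a naive human phage display library on the peptide. In library AAYL52, one, two or three CDR residues were substituted; doubles and triples were drawn at random. In AlphaSeq, yeast of one mating type display the scFv and yeast of the other type display the target. Mating (16 h, 30 °C) was followed by selection of diploids and sequencing of their barcodes. A regression on co-assayed BCL2-family reference pairs converts the normalised counts of each replicate to an apparent Kd. Each pool was mated in three replicate cultures.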

Each variant is given by its three light chain CDRs, as the data file delimits them; those of the parent are EGDSLRYYYAN, GKNNRPS, SSRDSSGFQVF. Affinities are written as log10 Kd with Kd in nM; a lower number is a better binder. Averages over replicates are reported, and they cover detected replicates only. A pair that was not seen in any replicate is written "not detected"; this usually means weak binding, but a binder can also be missed. For reference, the parent read 2.31 as the reference entry and 2.25 as a member of this library.

CDR-L1 | CDR-L2 | CDR-L3 | mean log10 Kd (nM) | detected | control signals
EGVSKRYWYAN | GKNNRPS | SSRDSSGFQVF | 3.45 | 3/3 | 4/9
EGDSYRYYYAN | GKKNRPS | SSRDSSGFQHF | 4.13 | 1/3 | 2/9
EGDSLRTYYAN | GFNNRMS | SSRDSSGFQVF | 2.87 | 3/3 | 1/9
EGQSLRYWYAN | GKNYRPS | SSRDSSGFQVF | 3.42 | 3/3 | 4/9
MGDSSRYYYAN | GKNNAPS | SSRDSSGFQVF | 3.77 | 2/3 | 5/9
EGDSLRYYYMN | GKNNRPR | SSRDSSGFQVV | 4.38 | 1/3 | 5/9
EGDSERYYYAN | GPNNRPS | SSRDSSLFQVF | 4.25 | 3/3 | 4/9
GGDSLRYYYAN | GKNNRPS | SIRDSSGFQVF | 2.37 | 3/3 | 6/9
EGCSLRYYYAS | GKNNRPS | SARDSSGFQVF | 4.46 | 2/3 | 5/9
EGDSLRYYYAM | GFNNRPS | SSRDSSGNQVF | 4.64 | 3/3 | 0/9
EGDMLRYYYAN | GKNNTPS | SSRDSSGFFVF | 3.35 | 1/3 | 3/9
EGLSLRYYYAN | GKENRVS | SSRDSSGFQVF | 2.25 | 3/3 | 1/9
EGASLRYYYAN | GKNPRPS | SSRDSSGEQVF | 3.33 | 3/3 | 2/9
EGDSQRVYYAN | GKNNRPS | SSRDESGFQVF | 4.08 | 3/3 | 3/9
QGDSLRYYYAN | GKNQRPS | SSRDHSGFQVF | 1.42 | 3/3 | 3/9
EGDSLRYYYAN | GKNNRPP | SSQDSSGFQPF | not detected | 0/3 | 1/9
EGDELRYYYAN | GKNNEPS | SSRNSSGFQVF | 5.36 | 1/3 | 3/9
GGDSLLYYYAN | GKNNRPS | SSRDSSGFAVF | 2.25 | 3/3 | 2/9
EGDSLRYCYAN | GKNNFPS | SSRDSWGFQVF | 3.82 | 3/3 | 5/9
EGDSLRYYRAN | GKNNHPS | KSRDSSGFQVF | 4.48 | 3/3 | 4/9
EGDSLRYYYAI | GKLNRPS | SSQDSSGFQVF | 3.84 | 2/3 | 2/9
EGDSLRYYYAN | GKNNRPS | GSRDSSGYQVE | 2.40 | 3/3 | 0/9
NGDSLRYYYAN | GKNNRPS | SRRDSSGFDVF | 2.87 | 3/3 | 0/9
NNDSLRYYYAN | GKNNRNS | SSRDSSGFQVF | 3.59 | 2/3 | 4/9
HGDSLRYYYAN | GKNPRPS | SSRRSSGFQVF | 3.71 | 1/3 | 4/9
EGDSMRYYYAV | GKINRPS | SSRDSSGFQVF | 1.91 | 3/3 | 3/9
EGDWLLYYYAN | GKNNRPS | SSRDSSGFQVF | 3.98 | 2/3 | 2/9
EGDSLRWHYAN | GKNNRPS | SSRKSSGFQVF | 4.35 | 2/3 | 4/9
EGDSLRYYYAN | GKNVRPS | SFRDSSGFLVF | 4.30 | 3/3 | 0/9
EGDPLRYPYAN | GKNNRPS | SSIDSSGFQVF | 1.67 | 3/3 | 2/9
EGDSLRPYYMK | GKNNRPS | SSRDSSGFQVF | 3.72 | 2/3 | 4/9
YGDFLRYYYAN | GKNNRPS | SSRMSSGFQVF | 3.25 | 1/3 | 2/9
EGDSHRYYYAN | GKNNRSS | SSRDSSGQQVF | not detected | 0/3 | 2/9
EGFSLRYYYAN | GKNNSCS | SSRDSSGFQVF | 4.64 | 1/3 | 3/9
EGDSLRYYYAN | GKNNRPS | SSRDLSGFRVF | 2.11 | 3/3 | 4/9
EGTRLRYYYAN | GKNNRPS | SSRDSSGFQVS | 3.30 | 2/3 | 4/9
EGDSLRYMYSA | GKNNRPS | SSRDSSGFQVF | 3.11 | 3/3 | 5/9
EGDSLRYYYAN | DKNNRPL | SGRDSSGFQVF | 3.09 | 3/3 | 1/9
EGDGLRYYYAN | GKNNRPS | MSRDSSCFQVF | 2.07 | 3/3 | 2/9
EGDSLRLYYAN | GKNNAPS | SSRDSSGFQTF | 2.78 | 1/3 | 2/9
KGDSLRYYYAN | GKDMRPS | SSRDSSGFQVF | 1.59 | 3/3 | 6/9
HGLSLRYYSAN | GKNNRPS | SSRDSSGFQVF | 1.85 | 3/3 | 2/9
EGDSLAYYQIN | GKNNRPS | SSRDSSGFQVF | 2.37 | 3/3 | 2/9
EGDSLRYYYAN | GKNHRPS | SSRASSRFQVF | 4.54 | 1/3 | 2/9
EGCSLRYYYAN | AKNNRPS | SSRDSSGRQVF | not detected | 0/3 | 2/9
CGDSLRYYYAN | GLNNRPS | SSRDSSGFQVF | 3.35 | 3/3 | 2/9
EGDSLRYYYAN | LCNNRPS | SSRDSSGFQVW | 3.07 | 1/3 | 0/9

The first 3 variants above that were never detected:

CDR-L1,CDR-L2,CDR-L3,mean log10 Kd (nM),detected,control signals
EGDSLRYYYAN,GKNNRPP,SSQDSSGFQPF,not detected,0/3,1/9
EGDSHRYYYAN,GKNNRSS,SSRDSSGQQVF,not detected,0/3,2/9
EGCSLRYYYAN,AKNNRPS,SSRDSSGRQVF,not detected,0/3,2/9

Nonspecific signal, from three strains lacking the peptide, appeared in 28% of pairings of library AAYL52, centred on 3.91 (5% of these signals below 2.90); values are not corrected for it. For each scFv, signals with the empty controls are counted beside the result.